Measurements: ChEMBL document CHEMBL5247638, “From rational design to serendipity: Discovery of novel thiosemicarbazones as potent trypanocidal compounds” (Eur J Med Chem, 2022)

Protein sequences, listed by entry. Tags and fused reporters are not part of them. Lines headed by an entry give the natural chain unless they say otherwise; changes in a name come on top.
UniProt P25779: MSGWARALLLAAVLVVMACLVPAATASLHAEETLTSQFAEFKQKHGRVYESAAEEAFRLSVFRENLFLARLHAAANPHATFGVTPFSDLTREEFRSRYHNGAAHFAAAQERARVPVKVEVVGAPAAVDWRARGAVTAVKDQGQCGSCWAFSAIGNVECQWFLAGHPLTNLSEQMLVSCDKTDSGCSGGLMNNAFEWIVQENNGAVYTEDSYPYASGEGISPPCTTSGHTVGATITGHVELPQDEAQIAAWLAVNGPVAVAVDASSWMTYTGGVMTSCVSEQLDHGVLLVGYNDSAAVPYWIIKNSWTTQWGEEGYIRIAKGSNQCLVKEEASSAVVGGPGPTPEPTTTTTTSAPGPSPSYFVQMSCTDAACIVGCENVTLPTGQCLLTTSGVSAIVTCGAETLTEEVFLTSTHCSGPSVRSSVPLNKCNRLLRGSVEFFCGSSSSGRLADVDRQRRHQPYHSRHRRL

How the values were obtained:
[1] = target: Cruzipain (Trypanosoma cruzi) (UniProt P25779); assay: Inhibition of Trypanosoma cruzi cruzain using Z-FR-AMC as substrate at 100 uM by fluorimetric analysis relative to control
[2] = target: Cruzipain (Trypanosoma cruzi) (UniProt P25779); assay: Inhibition of Trypanosoma cruzi cruzain using Z-FR-AMC as substrate at 100 uM preincubated for 10 mins followed by substrate addition by fluorimetric analysis relative to control
Trypanosoma brucei = assay: Inhibition of TbrCatL using Z-FR-AMC as substrate at 100 uM preincubated for 10 mins followed by substrate addition by fluorimetric analysis relative to control

| SMILES | inhibition [1] | inhibition [2] | inhibition (Trypanosoma brucei) |
| --- | --- | --- | --- |
| OCCNCc1ccc(-c2ccc(Br)cc2Cl)o1 | 63% | 73% | – |
| OCC(CO)NCc1ccc(-c2ccc(Br)cc2Cl)o1 | 63% | 67% | 63% |
| OCC(CO)NCc1ccc(-c2ccc(Cl)c(C(F)(F)F)c2)o1 | 66% | 44% | – |
| Clc1cc(Br)ccc1-c1ccc(CNCCN2CCOCC2)o1 | 63% | 73% | – |
